Target: T1, A. suum QFR (complex II) (Ascaris suum, UniProt O44074+P92506+P92507)
T1 construct: from tissue; host or cells: adult Ascaris suum muscle, mitochondrial fraction
Experiment: SQR activity assay of A. suum complex II (QFR) in mitochondrial fraction, UQ2 consumption at 278 nm
Type: biochemical
Settings: A. suum QFR versus porcine SQR

Protein sequences, listed by entry. Tags and fused reporters are not part of them. Residues count along the entry.
UniProt O44074, 22-282: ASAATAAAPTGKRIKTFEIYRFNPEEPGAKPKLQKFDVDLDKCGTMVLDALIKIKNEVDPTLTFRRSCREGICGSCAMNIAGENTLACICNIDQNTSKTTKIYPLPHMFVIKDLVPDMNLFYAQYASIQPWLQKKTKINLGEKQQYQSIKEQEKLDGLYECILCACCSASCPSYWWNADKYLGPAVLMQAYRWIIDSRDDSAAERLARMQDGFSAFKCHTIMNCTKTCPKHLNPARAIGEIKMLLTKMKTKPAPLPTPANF
UniProt P92506, 32-188: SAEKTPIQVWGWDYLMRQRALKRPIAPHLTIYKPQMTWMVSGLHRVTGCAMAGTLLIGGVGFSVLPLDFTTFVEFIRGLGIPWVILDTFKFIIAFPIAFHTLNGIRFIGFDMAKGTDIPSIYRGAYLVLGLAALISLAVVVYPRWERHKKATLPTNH
UniProt P92507, 26-156: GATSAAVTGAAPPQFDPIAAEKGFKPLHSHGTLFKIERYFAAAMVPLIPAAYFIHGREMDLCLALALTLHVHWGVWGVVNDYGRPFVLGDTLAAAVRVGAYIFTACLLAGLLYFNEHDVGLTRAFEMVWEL

CC(C)Oc1cccc(NC(=O)c2ccccc2C(F)(F)F)c1 [flutolanil, N-[3-(isopropyloxy)phenyl]-2-(trifluoromethyl)benzamide, reference compound]
selectivity index (IC50 porcine SQR / IC50 A. suum QFR): approximately 790 folds
